Consider 2 compounds from PubChem BioAssay AID540253 (National Center for Advancing Translational Sciences (NCATS), 2011).

The structures appear in SMILES notation. Only a part is listed here, and it is no random draw. Results filed as inconclusive are left out. The source made the active and inactive calls. Calls follow the shape of the full dose curve.

For this assay, the target named is Snurportin-1 (Homo sapiens) + GTP-binding nuclear protein Ran (Homo sapiens) + Importin subunit beta-1 (Homo sapiens) (UniProt O95149+P62826+Q14974). The experiment in a line: qHTS Assay for Inhibitors of RanGTP induced Rango (Ran-regulated importin-beta cargo) - Importin beta complex dissociation. Also: % of control where 0% means no effect; nearly all actives have a fitted effect of over 45% in size. The note with it: Biochemical FRET Rango-importin beta; at 46.1 µM (top of the series). Background: qHTS replaces the single test concentration by a dilution series.
For the compound `CCC(=O)N(c1ccccc1)C1(COC)CCN(CCc2cccs2)CC1`, the activity change, negative = inhibition was inactive: 0.239%. `CCC(=O)N(c1ccccc1)C1(COC)CCN(CCn2nnn(CC)c2=O)CC1`: the activity change, negative = inhibition was inactive: -9.11%.
